Laboratory results as given in PubChem BioAssay AID651725 (National Center for Advancing Translational Sciences (NCATS), 2012).
Only a part is listed here, and it is no random draw. Calls of active or inactive are those of the source. No stated cut-off is given here; in the data, active means activity change below about -65%; inconclusive means mostly about -30% to -63%; inactive means weaker than that.

Amino acid sequences for entries named in this document (tags omitted).
UniProt Q15475, whole entry: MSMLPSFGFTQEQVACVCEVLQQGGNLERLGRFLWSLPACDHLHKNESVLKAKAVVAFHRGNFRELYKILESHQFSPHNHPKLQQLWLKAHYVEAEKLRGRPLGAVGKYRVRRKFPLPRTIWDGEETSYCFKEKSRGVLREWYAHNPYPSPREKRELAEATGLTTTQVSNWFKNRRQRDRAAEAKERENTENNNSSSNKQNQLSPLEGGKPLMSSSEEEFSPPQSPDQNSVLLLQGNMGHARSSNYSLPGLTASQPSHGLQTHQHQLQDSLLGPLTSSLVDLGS

What follows are molecules tested against Homeobox protein SIX1 (Homo sapiens) + Protein phosphatase EYA2 (Homo sapiens) (UniProt Q15475+O00167) (assay: qHTS Assay for Inhibitors of the Six1/Eya2 Interaction). Settings: AlphaScreen GST-Six1/His-Eya2 binding, biochemical; stronger effect = lower value.
Summary of the method: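 AlphaScreen with GST-Six1 and His-Eya2 (5X mix: 250 nM and 500 nM), glutathione donor and nickel acceptor beads; buffer 50 mM Tris pH 8.0, 300 mM NaCl, 1 mM TCEP; 1 h at 37 C in the dark.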
On the % scale 0 is the no-effect control and ±100 the full control effect.

SMILES | activity change
COC(=O)C1(C)COP(=O)(Nc2ccccc2)OC1 (stereo not drawn) | inactive: 9.28%
O=[N+]([O-])c1cccc(NC2=NCC(CBr)S2)c1 (stereo not drawn) | inactive: 2.73%
O=C(O)CNc1ccc([As](=O)(O)O)cc1 | inactive: 5.08%
CC1CCNP(=O)(N(CCCl)CCCl)O1 (stereo not drawn) | inactive: 8.59%
O=C(O)C(=O)c1ccc(N(CCCl)CCCl)cc1.c1ccc(Nc2ccccc2)cc1 | inactive: -16.2%
CCOC(=O)Nc1ccc([As](=O)(O)O)c(O)c1 | inactive: 7.33%
Cc1cc(SC(NC(=O)c2ccccc2)C(Cl)(Cl)Cl)nc(C(C)C)n1 (stereo not drawn) | inactive: 0.584%
CCCCOc1ccc(C(=O)NCC2(N3CCCCC3)CCCCC2)cc1OC | inactive: 4.75%
COP(=O)(OC)N1CC1c1ccccc1 (stereo not drawn) | inactive: 4.72%
CCOC(=O)Nc1cccc([As](=O)(O)O)c1 | inactive: 6.23%
CP(=S)(Nn1cnnc1)Oc1ccccc1 (stereo not drawn) | inactive: 10.2%
O=[N+]([O-])c1ccc(Nc2ccc(Oc3ccc([N+](=O)[O-])cc3[N+](=O)[O-])cc2)c([N+](=O)[O-])c1 | inactive: 0.623%
CP(=O)(Nc1ccccc1Br)Oc1ccccc1 (stereo not drawn) | inactive: 2.27%
COc1ccccc1OP(C)(=O)Nc1ccccc1 (stereo not drawn) | inactive: 1.35%
O=P(Nc1ccccn1)(c1cccc2ccccc12)c1cccc2ccccc12 | inactive: -2.18%
Cc1cc(SC(NC=O)C(Cl)(Cl)Cl)ncn1 (stereo not drawn) | inactive: -1.78%
CP(=O)(Oc1ccccc1)OC(c1ccccc1)C(F)(F)F (stereo not drawn) | inactive: 2.72%
COC(=O)C1(C)COP(=O)(N2CCCC2)OC1 (stereo not drawn) | inactive: 0%
COP1(=S)c2c(C)nn(CCC#N)c2N=C(c2ccc(F)cc2)N1C (stereo not drawn) | inactive: 1.47%
Cc1cccc(C)c1OP(C)(=O)Nc1ccc(SC(F)(F)F)cc1 (stereo not drawn) | inactive: 0.483%
CP(=O)(Nc1ccc(SC(F)(F)F)cc1)Oc1ccc(Cl)cc1 (stereo not drawn) | inactive: -3.05%

SMILES | activity change
Cc1cc(C)cc(OP(C)(=O)Nc2ccc(SC(F)(F)F)cc2)c1 (stereo not drawn) | inactive: -1.8%
O=C(Nc1ccncc1[N+](=O)[O-])c1ccc([N+](=O)[O-])cc1[N+](=O)[O-] | inactive: -1.48%
O=C(COc1ccccc1)OC1CN2CCC1CC2 (stereo not drawn) | inactive: -0.989%
CP(=O)(NC(=O)Nc1ccccc1)Oc1ccccc1 (stereo not drawn) | inactive: -0.168%
CCc1ccc(OP(C)(=O)N2CCN(c3ccc([N+](=O)[O-])cc3)CC2)cc1 (stereo not drawn) | inactive: -4.98%
CCOC(=O)c1ccc(NP(C)(=O)Oc2ccc(OC)cc2)cc1 (stereo not drawn) | inactive: -9.79%
CCOC(=O)c1ccc(NC(=O)C(C)(CCl)SC)cc1 (stereo not drawn) | inactive: 0.949%
O=[N+]([O-])c1cc([N+](=O)[O-])c(O)c([N+](=O)[O-])c1.c1ccc(Oc2ccncc2)cc1 | inactive: 4.05%
CCOP(C)(=S)SCC(=O)NC(C)C(=O)O (stereo not drawn) | inactive: -4.87%
O=C(OC1CN2CCC1CC2)c1cccc([N+](=O)[O-])c1 (stereo not drawn) | inactive: 1.02%
CP(=O)(Nc1ccccn1)Oc1ccc(Cl)cc1 (stereo not drawn) | inactive: -1.18%
CCC(C)N(CC(C)C)C(=S)SC(NC(C)=O)C(Cl)(Cl)Cl (stereo not drawn) | inactive: -11.4%
Cc1cc(=O)[nH]c(N[N+](=O)[O-])n1 | inactive: 0.148%
CCN(CC)CCCOC(=O)C(O)(c1ccccc1)c1ccccc1 | inactive: 3.8%
O=C(OC1CN2CCC1CC2)C12CC3CC(CC(C3)C1)C2 (stereo not drawn) | inactive: -10.9%
Cc1c2c(nc3ccccc13)SC(C(Cl)Cl)C2 (stereo not drawn) | inactive: 8.72%
COc1cc(I)ccc1[As](=O)(O)O | inactive: 2.39%
COc1ccc2nc(NP(=O)(c3ccccc3)c3ccccc3)sc2c1 | inactive: -2.47%
O=P1(N(CCCl)CCCl)Nc2ccccc2N1 | inactive: 3.01%
O=P1(N(CCCl)CCCl)OCCCN1CCCl (stereo not drawn) | inactive: 6.21%
COc1ccccc1-c1ccccn1.O=[N+]([O-])c1cc([N+](=O)[O-])c(O)c([N+](=O)[O-])c1 | inactive: 6.05%

SMILES | activity change
COc1ccc(N/C(=N/P(=O)(N2CCOCC2)N2CCOCC2)N2CCOCC2)cc1 | inactive: 1.43%
O=[N+]([O-])c1cc(Oc2ccc([N+](=O)[O-])cc2C(F)(F)F)cc([N+](=O)[O-])c1 | inactive: 2.72%
O=[N+]([O-])c1ccc(-c2cc([N+](=O)[O-])c(O)c([N+](=O)[O-])c2)cc1 | inactive: -14.6%
COc1cc(C(=O)NCC2(N3CCOCC3)CCCCC2)ccc1OCC(C)C | inactive: 0.308%
O=[As](O)(c1ccc(O)cc1)c1ccccc1O | inactive: 5.4%
C[As](=O)(O)c1cccc(C(=O)O)c1 | inactive: 15.6%
O=[N+]([O-])c1cc([N+](=O)[O-])c(Nc2cccnc2)c([N+](=O)[O-])c1 | inactive: -15.3%
O=[N+]([O-])c1ccc2c(c1)C=Nc1ccccc1O2 | inactive: -27.7%
Cc1ccc2nc3c(c(C)c2c1)CC(C(Cl)Cl)S3 (stereo not drawn) | inactive: 0%
Cc1cccc(C)c1OP(C)(N)=O (stereo not drawn) | inactive: 10.7%
[N-]=[N+]=NC1CCCCC1NC(=O)c1cc([N+](=O)[O-])cc([N+](=O)[O-])c1 (stereo not drawn) | inactive: 1.05%
Cc1ccc(OP(=O)(Nc2ccc([N+](=O)[O-])cn2)Oc2ccc(C)cc2)cc1 | inactive: 1.34%
CC(C)(C)c1ccc(OP(C)(=O)Nc2ccc(SC(F)(F)F)cc2)cc1 (stereo not drawn) | inactive: -7.8%
COC(=O)C1(C)COP(=O)(N2CCCCCC2)OC1 (stereo not drawn) | inactive: 2.81%
Cc1ccc(NP(C)(=O)Oc2ccccc2)c(C)c1 (stereo not drawn) | inactive: 0.187%
CC(C)c1ccc(OP(=O)(Nc2ccccn2)Oc2ccccc2F)cc1 (stereo not drawn) | inactive: 6.18%
COc1ccccc1OP(C)(=O)Nc1ccc(C)cc1 (stereo not drawn) | inactive: 8.46%
ClCCSc1nnc(-c2cccnc2)o1 | inactive: -1.34%
CCOC(=O)c1ccc(NP(C)(=O)Oc2ccccc2)cc1 (stereo not drawn) | inactive: 3.82%
Cc1cc(C)cc(OP(C)(N)=O)c1 (stereo not drawn) | inactive: 7.19%
COc1ccc(OP(C)(=O)Nc2cccc(F)c2)cc1 (stereo not drawn) | inactive: -4.34%
